Test results from patent US20260384421A1, “NOVEL COMPOUNDS THAT CAN BE USED AS THERAPEUTIC AGENTS” (published 2026).

Experiments:
HL-60 cells = assay: alamarBlue proliferation assay with HL-60 cells; settings: read-out: Activity on HL-60: IC50, RPMI 1640 medium, 10% FBS
SW-948 cells = assay: alamarBlue proliferation assay with SW-948 cells (glucose-free L-15 medium); settings: read-out: Activity on SW-948: IC50, Leibovitz's L-15 medium, 10% FBS, 0% CO2
T-47D cells = assay: alamarBlue proliferation assay with T-47D cells; settings: read-out: Activity on T-47D (IC50), day 5

| Compound | IC50 (HL-60 cells) [µM] | IC50 (SW-948 cells) [µM] | IC50 (T-47D cells) [µM] |
| --- | --- | --- | --- |
| O=C(c1ccc(Oc2ccc(C3CCC4(CCCO4)CC3)cc2CO)cc1)N1CCN(Cc2ccccc2)CC1 (stereo not shown) | ≤ 5 | ≤ 1 | – |
| O=C(c1ccc(Oc2ccc(C3CCC4(CC3)OCCO4)cc2CO)cc1)N1CCN(Cc2ccoc2)CC1 | ≤ 5 | ≤ 5 | – |
| O=C(c1ccc(Oc2ccc(C3CCC4(CC3)SCCCS4)cc2CO)cn1)N1CCN(Cc2ccc(Cl)cc2)CC1 | – | – | ≤ 5 |
| O=C(c1ccc(Oc2ccc(C3CCC4(CC3)OCCO4)cc2CO)cc1)N1CCN(Cc2cccs2)CC1 | ≤ 5 | ≤ 5 | – |
| O=C(c1ccc(Oc2ccc(C3CCC4(CC3)OCCO4)cc2CO)cc1)N1CCN(Cc2ccc(O)cc2)CC1 | ≤ 5 | ≤ 1 | – |
| COC1CCC(c2ccc(Oc3ccc(C(=O)N4CCN(Cc5ccc(Cl)cn5)CC4)cc3)c(CO)c2)CC1 (stereo not shown) | – | – | ≤ 5 |
| COCC1(COC)CCC(c2ccc(Oc3ccc(C(=O)N4CCN(Cc5ccc(Cl)cc5)CC4)cc3)c(CO)c2)CC1 | – | – | ≤ 5 |
| O=C(c1ccc(Oc2ccc(C3CCC4(CC3)OCCO4)cc2CO)cc1)N1CCN(Cc2ccsc2)CC1 | ≤ 5 | ≤ 1 | – |
| O=C(c1ccc(Oc2ccc(C3CCC4(CC3)OCCO4)cc2CO)cc1)N1CCN(Cc2ccc([N+](=O)[O-])cc2)CC1 | ≤ 5 | ≤ 0.2 | – |
| O=Cc1cc(C2CCC3(CC2)SCCCS3)ccc1Oc1ccc(C(=O)N2CCN(Cc3ccc(Cl)cc3)CC2)nc1 | – | – | ≤ 5 |
| COCC1(COC)CCC(c2ccc(Oc3ccc(C(=O)N4CCN(Cc5ccc(OC)cc5)CC4)cc3)c(CO)c2)CC1 | – | – | ≤ 5 |
| O=C(c1ccc(Oc2ccc(C3CCC4(CC3)OCCO4)cc2CO)cc1)N1CCN(Cc2ccc(Cl)cc2)CC1 | ≤ 0.2 | ≤ 0.2 | – |
| COc1ccc(CN2CCN(C(=O)c3ccc(Oc4ccc(C5CCC6(CC5)SCCCS6)cc4CO)cn3)CC2)cc1 | – | – | ≤ 5 |
| O=C(c1ccc(Oc2ccc(C3CCC4(CC3)OCCO4)cc2CO)cc1)N1CCN(Cc2ccc3ccccc3c2)CC1 | ≤ 0.2 | ≤ 0.2 | – |
| O=C(c1ccc(Oc2ccc(C3CCC4(CC3)OCCO4)cc2CO)cn1)N1CCN(Cc2ccccc2)CC1 | – | – | ≤ 5 |
| O=C(c1ccc(Oc2ccc(C3CCC4(CC3)SCCS4)cc2CO)cn1)N1CCN(Cc2ccc(Cl)cc2)CC1 | – | – | ≤ 5 |
| O=C(c1ccc(Oc2ccc(C3CCC4(CC3)OCCO4)cc2CO)cc1)N1CCN(Cc2ccc(Cl)cn2)CC1 | – | – | ≤ 5 |
